Earlier results on 1 compound are cited in PMC7618119.

Structures are written as SMILES.

This data set relates to P-glycoprotein. The note with it: ref Dagenais et al., 2004; Kalvass et al., 2007; F. Martins et al., 2023; Yu et al., 2018; cited from earlier work.

Consider `CN1CC[C@]23c4c5ccc(O)c4O[C@H]2[C@@H](O)C=C[C@H]3[C@H]1C5`, for which the P-glycoprotein substrate entry was “substrates for P-glycoprotein-mediated extrusion from the brain”.
